Data taken from patent publication US5834487A, “Inhibition of 26S and 20S proteasome by indanones” (CV Therapeutics, priority 1996, dated 1998).

Biological target: 20S catalytic subunit of the proteasome (multicatalytic proteinase complex) (Bos taurus, UniProt Q32KL2)
Assay: 20S proteasome chymotryptic activity, fluorogenic peptide cleavage
Conditions: 50 μM succinyl-leu-leu-val-tyr-7-amino-4-methyl coumarin, 15 minutes at 37° C, pH7.5
Method: Compounds of this invention prepared according to the method of Example 1 were tested as follows. The 20S catalytic subunit of the proteasome (also known as the multicatalytic proteinase complex) was purified to homogeneity from bovine brain according to published methods (Wilk S. and Orlowski, M, 40 842 J. Neurochem (1983)). The chymotryptic activity of the complex is measured by the increase in fluorescence following cleavage of the substrate peptide succinyl-leucine-leucine-valine-tyrosine-7-amino-4-methyl coumarin. The standard in vitro assay consists of 2 μg 20S proteasome, 0.1-100 μg/ml proteasome inhibitor in 200 μl 50 mM HEPES, containing 0.1% sodium dodecyl sulphate, pH7.5. The proteolytic reaction is initiated by the addition of 50 μM fluorogenic peptide substrate and allowed to progress for 15 minutes at 37° C. The reaction is terminated by the addition of 100 μl of 100 mM acetate buffer, pH4.0. The rate of proteolysis is directly proportional to the amount of liberated aminomethylcoumarin which is measured by fluorescent spectroscopy (EX 370 nm, EM 430 nm).

IC50, > 10 mg/L:
COc1ccc2c(c1)C(CC(=O)N[C@H](CC(C)C)C(=O)N[C@H](Cc1ccc(O)cc1)C(N)=O)CC2=O (stereo partly drawn)
COc1ccc2c(c1)C(CC(=O)N[C@H](CC(C)C)C(=O)N1Cc3ccccc3C[C@@H]1C(N)=O)CC2=O (stereo partly drawn)
COc1ccc2c(c1)C(CC(=O)N[C@H](CC1CCCCC1)C(=O)N[C@H](CC(C)C)C(N)=O)CC2=O (stereo partly drawn)
